Data as given in US12162867B2, “Inhibitors of RNA helicase DHX9 and uses thereof” (ACCENT THERAPEUTICS, INC., priority 2022, dated 2024).
Like-named read-outs stand apart in the source and are kept apart here. Each block holds one molecule with its values, some of them ahead of it.

Protein sequences, listed by entry. Tags and fused reporters are not part of them.
UniProt Q08211, whole entry: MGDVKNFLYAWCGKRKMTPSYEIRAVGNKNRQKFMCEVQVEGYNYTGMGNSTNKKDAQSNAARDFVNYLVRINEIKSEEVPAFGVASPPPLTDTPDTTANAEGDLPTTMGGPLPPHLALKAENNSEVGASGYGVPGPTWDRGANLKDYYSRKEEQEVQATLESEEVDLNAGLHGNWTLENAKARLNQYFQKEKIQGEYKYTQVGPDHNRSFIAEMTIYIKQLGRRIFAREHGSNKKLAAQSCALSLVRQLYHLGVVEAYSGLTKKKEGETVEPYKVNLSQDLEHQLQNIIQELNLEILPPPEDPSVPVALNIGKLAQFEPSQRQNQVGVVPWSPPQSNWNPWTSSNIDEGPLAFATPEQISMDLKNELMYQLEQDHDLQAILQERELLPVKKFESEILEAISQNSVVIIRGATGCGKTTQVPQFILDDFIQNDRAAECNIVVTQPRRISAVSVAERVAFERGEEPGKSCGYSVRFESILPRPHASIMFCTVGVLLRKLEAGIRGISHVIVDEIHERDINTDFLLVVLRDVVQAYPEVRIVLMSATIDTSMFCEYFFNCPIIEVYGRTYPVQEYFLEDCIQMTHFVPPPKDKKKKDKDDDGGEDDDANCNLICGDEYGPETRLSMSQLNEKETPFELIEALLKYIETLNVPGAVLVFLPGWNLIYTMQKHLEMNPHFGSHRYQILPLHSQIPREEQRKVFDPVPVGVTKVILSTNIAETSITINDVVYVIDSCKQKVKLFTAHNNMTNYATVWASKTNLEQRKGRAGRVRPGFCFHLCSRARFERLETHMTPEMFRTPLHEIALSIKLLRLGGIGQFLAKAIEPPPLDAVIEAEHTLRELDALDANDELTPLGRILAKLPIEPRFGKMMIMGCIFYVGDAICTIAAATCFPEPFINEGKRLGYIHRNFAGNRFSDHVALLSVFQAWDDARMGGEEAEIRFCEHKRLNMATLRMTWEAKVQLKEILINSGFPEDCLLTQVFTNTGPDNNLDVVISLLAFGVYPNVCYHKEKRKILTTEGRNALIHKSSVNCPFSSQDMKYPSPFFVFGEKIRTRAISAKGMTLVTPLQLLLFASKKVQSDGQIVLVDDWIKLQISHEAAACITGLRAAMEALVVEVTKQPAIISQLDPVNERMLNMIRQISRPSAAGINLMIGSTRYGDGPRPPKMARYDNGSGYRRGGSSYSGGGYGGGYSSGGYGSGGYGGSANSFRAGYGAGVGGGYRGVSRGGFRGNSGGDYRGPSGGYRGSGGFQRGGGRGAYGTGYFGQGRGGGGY

Legend:
LS411N cells = experiment: DHX9 cellular proliferation assay (CellTiter-Glo), LS411N (CRC-MSI); format: cell-based; details: Homo sapiens, LS-411N
NCI-H747 cells = experiment: DHX9 cellular proliferation assay (CellTiter-Glo), NCI-H747 (CRC-MSS); format: cell-based; details: Homo sapiens
[1] = test system: circBRIP1 in HCT116 cells; experiment: DHX9 circBRIP1 cellular target engagement TaqMan Multiplex assay (qPCR); format: cell-based; details: Homo sapiens, HCT-116, read-out: DHX9 Cellular Target Engagement EC50 (μM)
[2] = test system: circBRIP1 in HCT116 cells; experiment: DHX9 circBRIP1 cellular target engagement SYBR Green assay (qPCR); format: cell-based; details: Homo sapiens
HCT116 cells = experiment: DHX9 cellular proliferation assay (CellTiter-Glo), HCT116; format: cell-based; details: Homo sapiens, HCT-116; HCT116, CRC-MSI; assay performed at Accent Therapeutics, Inc.; read-out: *HCT116 Anti-proliferative IC50
Colo205 cells = experiment: cells; details: Homo sapiens, COLO 205, read-out: *Colo205 Anti-proliferation IC50 (μM)
[3] = target: T1, Human recombinant DHX9 protein (Homo sapiens, UniProt Q08211); experiment: DHX9 ATPase assay (ADP-Glo); format: biochemical
T1 construct: purchased Viva

[4] = read-out: LS411N (CRC-MSI-H) Antiproliferative IC50
[5] = NCI-H747, read-out: H747 (CRC-MSS) Antiproliferative IC50
[6] = HCT-116, read-out: DHX9 Cellular Target Engagement EC50
[7] = LS411N, CRC-MSI-H, performed at Pharmaron, read-out: LS411N (CRC-MSI-H) Antiproliferative IC50
[8] = NCI-H747, NCI-H747, CRC-MSS, performed at Pharmaron, read-out: H747 (CRC-MSS) Antiproliferative IC50
[9] = HCT-116, circBRIP1, HCT116 cells, SyBr assay (marked ^+), read-out: DHX9 Cellular Target Engagement EC50

SMILES: CC(C)N1CC(Oc2cnc(-c3cc(C(=O)Nc4cc(Cl)cc(NS(C)(=O)=O)c4)cn3C)c(F)c2)C1 [Example 634, N-(3-chloro-5-methanesulfonamidophenyl)-5-{3-fluoro-5-[(1-isopropylazetidin-3-yl)oxy]pyridin-2-yl}-1-methylpyrrole-3-carboxamide]
IC50 (LS411N cells; [4]): 24.7 nM | IC50 (NCI-H747 cells; [5]): 8980 nM | EC50 [1]: 0.0186 µM

SMILES: CS(=O)(=O)Nc1cc(Cl)cc(NC(=O)c2cc(-c3ccccn3)ns2)c1 [Example 137, N-(3-chloro-5-(methylsulfonamido)phenyl)-3-(pyridin-2-yl)isothiazole-5-carboxamide]
EC50 [2, 6]: 3010 nM

IC50 (NCI-H747 cells; [8]): > 10000 nM | EC50 [2, 9]: 6940 nM
SMILES: CS(=O)(=O)Nc1cc(Cl)cc(NC(=O)c2cccc(-n3ccc(CO)n3)c2)c1 [Example 160, N-(3-chloro-5-(methylsulfonamido)phenyl)-3-(3-(hydroxymethyl)-1H-pyrazol-1-yl)benzamide]
IC50 (LS411N cells; [7]): > 10000 nM

SMILES: Cc1cc(C(=O)Nc2cc(Cl)cc(NS(C)(=O)=O)c2)cn1-c1ccccn1 [Example 170, N-(3-chloro-5-(methylsulfonamido)phenyl)-5-methyl-1-(pyridin-2-yl)-1H-pyrrole-3-carboxamide]
IC50 (LS411N cells; [4]): 122 nM | IC50 (NCI-H747 cells; [5]): > 10000 nM | EC50 [2, 6]: 44.7 nM

IC50 (NCI-H747 cells; [8]): > 10000 nM | EC50 [2, 9]: 44.5 nM
SMILES: Cc1cc(C(=O)Nc2cc(Cl)cc(NS(C)(=O)=O)c2)cn1-c1ncccc1OCc1cncc(F)c1 [Example 175, N-(3-chloro-5-(methylsulfonamido)phenyl)-1-(3-((5-fluoropyridin-3-yl)methoxy)pyridin-2-yl)-5-methyl-1H-pyrrole-3-carboxamide]
IC50 (LS411N cells; [7]): 86.3 nM

SMILES: CS(=O)(=O)Nc1cc(Cl)cc(NC(=O)c2cc(C(=O)N3CCNCC3)n(-c3ccccn3)c2)c1 [Example 165, N-(3-chloro-5-(methylsulfonamido)phenyl)-5-(piperazine-1-carbonyl)-1-(pyridin-2-yl)-1H-pyrrole-3-carboxamide]
EC50 [2, 6]: > 10000 nM

SMILES: CS(=O)(=O)Nc1cc(Br)cc(NC(=O)c2cc(-c3ccccc3)cs2)c1 [Example 15, N-(3-bromo-5-(methylsulfonamido)phenyl)-4-phenylthiophene-2-carboxamide]
IC50 (HCT116 cells): 1030 nM | IC50 (LS411N cells; [7]): 663 nM | IC50 (LS411N cells; LS411N, CRC-MSI, assay performed at Accent Therapeutics, Inc., read-out: *LS411N Anti-proliferative Activity IC50): 2570 nM | IC50 (Colo205 cells): 10.6 µM

SMILES: CS(=O)(=O)Nc1cc(Cl)cc(NC(=O)c2cc(CO)n(-c3ccccn3)c2)c1 [Example 169, N-(3-chloro-5-(methylsulfonamido)phenyl)-5-(hydroxymethyl)-1-(pyridin-2-yl)-1H-pyrrole-3-carboxamide]
IC50 (LS411N cells; [4]): 2170 nM | IC50 (NCI-H747 cells; [5]): > 10000 nM | EC50 [2, 6]: 189 nM

SMILES: CS(=O)(=O)Nc1cc(Br)cc(NC(=O)c2cc(-c3ccccn3)cs2)c1 [Example 17, N-(3-bromo-5-(methylsulfonamido)phenyl)-4-(pyridin-2-yl)thiophene-2-carboxamide]
IC50 (Colo205 cells): 11.8 µM

SMILES: CS(=O)(=O)Nc1cc(Cl)cc(NC(=O)c2cnn([C@H]3CC[C@@H](O)CC3)c2)c1 [Example 151, N-(3-chloro-5-(methylsulfonamido)phenyl)-1-((1s,4s)-4-hydroxycyclohexyl)-1H-pyrazole-4-carboxamide]
DHX9 Biochemical Max Inhibition [3]: 58.9% | IC50 ([3]; inflection point of dose-response curve, read-out: DHX9 Biochemical Inflection Point): 179 nM

SMILES: CS(=O)(=O)Nc1cc(Cl)cc(NC(=O)c2cnn([C@H]3CC[C@H](O)CC3)c2)c1 (single isomer, unassigned) [Example 154]
DHX9 Biochemical Max Inhibition [3]: 58.9%

EC50 [2, 9]: 3160 nM
SMILES: CS(=O)(=O)Nc1cc(Cl)cc(NC(=O)c2cnn(-c3ncccc3OC(F)(F)c3ccccc3)c2)c1 [Example 97, N-(3-chloro-5-(methylsulfonamido)phenyl)-1-(3-(difluoro(phenyl)methoxy)pyridin-2-yl)-1H-pyrazole-4-carboxamide]

EC50 [2, 9]: 408 nM
SMILES: CS(=O)(=O)Nc1cc(Cl)cc(NC(=O)c2cc(N3CCCC3=O)cs2)c1 [Example 176, N-(3-chloro-5-(methylsulfonamido)phenyl)-4-(2-oxopyrrolidin-1-yl)thiophene-2-carboxamide]

EC50 [2, 9]: 1330 nM
SMILES: CS(=O)(=O)Nc1cc(Cl)cc(NC(=O)c2cc(C#N)n(-c3ccccn3)c2)c1 [Example 98, N-(3-chloro-5-(methylsulfonamido)phenyl)-5-cyano-1-(pyridin-2-yl)-1H-pyrrole-3-carboxamide]

EC50 [2, 9]: 1520 nM
SMILES: CS(=O)(=O)Nc1cc(Cl)cc(NC(=O)c2cnn(-c3ncccc3OCc3cccnc3)c2)c1 [Example 61, N-(3-chloro-5-(methylsulfonamido)phenyl)-1-(3-(pyridin-3-ylmethoxy)pyridin-2-yl)-1H-pyrazole-4-carboxamide]
